One experiment deals with Smad2 (UniProt Q15796). The experiment is described as follows: yeast two-hybrid.
A further experiment concerns the target T1, LexA-Smad1L (146-270) (UniProt P0A7C2; Q15797, in part).
T1 construct: Yeast two-hybrid LexA fusion in pEG202; also called central linker region of Smad1
The experiment is described as follows: yeast two-hybrid, X-Gal plates. The text has this:
The transformants are first streaked onto a master plate, then replicated onto two testing plates: U^-H^-W^- glucose plates with X-gal; U^-H^-W^- HW galactose/raffinose plates with X-gal.

The chains behind the UniProt entries cited, without tags or fusion partners. Where a name states a change or a piece, a line headed by the entry shows the natural chain unless it says otherwise.
UniProt Q15796, whole entry: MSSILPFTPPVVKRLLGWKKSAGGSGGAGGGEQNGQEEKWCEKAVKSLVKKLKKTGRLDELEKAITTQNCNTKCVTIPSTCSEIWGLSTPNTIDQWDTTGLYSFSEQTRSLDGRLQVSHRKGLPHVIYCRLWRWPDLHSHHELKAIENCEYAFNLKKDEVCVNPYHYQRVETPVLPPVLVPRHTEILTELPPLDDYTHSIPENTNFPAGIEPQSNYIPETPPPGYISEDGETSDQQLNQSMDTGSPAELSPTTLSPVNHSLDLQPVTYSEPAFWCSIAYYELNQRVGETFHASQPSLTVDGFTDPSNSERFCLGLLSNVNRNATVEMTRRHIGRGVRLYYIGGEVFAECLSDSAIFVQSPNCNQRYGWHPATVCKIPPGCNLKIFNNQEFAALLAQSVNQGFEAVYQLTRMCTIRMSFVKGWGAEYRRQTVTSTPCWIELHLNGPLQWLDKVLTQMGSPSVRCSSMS
UniProt Q15797: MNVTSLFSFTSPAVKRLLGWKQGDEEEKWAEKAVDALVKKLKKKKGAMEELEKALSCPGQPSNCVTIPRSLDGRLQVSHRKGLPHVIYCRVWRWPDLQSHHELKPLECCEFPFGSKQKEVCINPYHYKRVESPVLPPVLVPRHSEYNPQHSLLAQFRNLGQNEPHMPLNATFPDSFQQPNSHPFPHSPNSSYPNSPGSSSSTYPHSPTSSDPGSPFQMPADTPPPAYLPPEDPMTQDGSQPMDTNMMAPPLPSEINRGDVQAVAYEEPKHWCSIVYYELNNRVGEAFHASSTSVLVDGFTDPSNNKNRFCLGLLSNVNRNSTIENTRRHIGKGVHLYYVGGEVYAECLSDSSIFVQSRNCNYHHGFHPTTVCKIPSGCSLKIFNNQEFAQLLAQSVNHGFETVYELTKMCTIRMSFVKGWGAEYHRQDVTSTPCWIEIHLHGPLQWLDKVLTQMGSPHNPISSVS

The target of experiment [1] is T2, LexA-Smad1 (full length Smad1 fused in frame to the LexA DNA binding domain (1-202) in pEG202) (UniProt P0A7C2; Q15797).
T2 construct: also called Smad1pEG202; full length Smad1 bait
The experiment is described as follows: yeast two-hybrid screen, LexA-Smad1 bait, human fetal brain library. The text has this:
From the pooled stock of the transformants, ten million cells are screened on U^-H^-W^-L^- galactose plates containing X-gal. Only those that form blue colonies are picked as candidate positives. […] Methods of sequencing employ such enzymes as the Klenow fragment of DNA polymerase I, Sequenase® (US Biochemical Corp, Cleveland, Ohio), Taq polymerase (Perkin Elmer, Norwalk, Conn.), thermostable T7 polymerase (Amersham, Chicago, Ill.), or combinations of recombinant polymerases and proofreading exonucleases such as the ELONGASE Amplification System (Gibco BRL, Gaithersburg, Md.). Preferably, the process is automated with machines such as the Hamilton Micro Lab 2200 (Hamilton, Reno Nev.), Peltier Thermal Cycler (PTC200; MJ Research, Watertown, Mass.) and the ABI 377 DNA sequencers (Perkin Elmer). […] The transformants are first streaked onto a master plate, then replicated onto two testing plates: U^-H^-W^- glucose plates with X-gal; U^-H^-W^- HW galactose/raffinose plates with X-gal.

B1: B42-HsN3 fusion protein (full length HsN3 fused to the B42 activation domain in pJG4-5) (other, human, UniProt P28070 1-264, looked up, not shown: large carriers)
chain: MEAFLGSRSGLWAGGPAPGQFYRIPSTPDSFMDPASALYRGPITRTQNPMVTGTSVLGVKFEGGVVIAADMLGSYGSLARFRNISRIMRVNNSTMLGASGDYADFQYLKQVLGQMVIDEELLGDGHSYSPRAIHSWLTRAMYSRRSKMNPLWNTMVIGGYADGESFLGYVDMLGVAYEAPSLATGYGAYLAQPLLREVLEKQPVLSQTEARDLVERCMRVLYYRDARSYNRFQIATVTEKGVEIEGPLSTETNWDIAHMISGFE
notes: Isolated from a human fetal brain library; also called clone 18; S1+18
For the molecule B1, the binding result in the experiment with Smad2 is on record as “no binding”; with LexA-Smad1L (146-270), “no binding”; in experiment [1] it was “binds”.
